Measurements from patent US9238053B2, “Methods for treatment of pain” (Nocicepta LLC, priority 2009, dated 2016).

Legend:
[1] = tested on: rats; conditions: 25 mg/kg intranasal, 4 rats, observed up to 24 hours
[2] = tested on: male rats; test: Facial formalin model of tonic pain (formalin injection into the lip, facial wiping/grooming); conditions: rats receiving intranasal N/OFQ in formalin model
Procedure: Time spent grooming was determined over 45 minutes and grouped in 3 minute bins. […] The area under the curve (AUC) for each compound or vehicle was approximated using the trapezodial method. % Reduction=[(Vehicle AUC−Treatment AUC)/Vehicle AUC)]×100%. Data are presented as the mean±1 SEM. (n=6-8 Rats/group).
The paw formalin model is widely used to assess tonic pain efficacy of putative and known analgesic treatments.

[3] = tested on: rats; conditions: 5.0 mg/kg i.n., 20-30 minutes before charcoal meal

## CC(C)C[C@H](NC(=O)[C@H](CCCCN)NC(=O)[C@H](CCCN=C(N)N)NC(=O)[C@H](C)NC(=O)[C@H](CO)NC(=O)[C@H](CCCCN)NC(=O)[C@H](CCCN=C(N)N)NC(=O)[C@H](C)NC(=O)CNC(=O)[C@@H](NC(=O)[C@H](Cc1ccccc1)NC(=O)CNC(=O)CNC(=O)[C@@H](N)Cc1ccccc1)[C@@H](C)O)C(=O)N[C@@H](C)C(=O)N[C@@H](CC(N)=O)C(=O)N[C@@H](CCC(N)=O)C(=O)O [N/OFQ, Nociceptin/orphanin FQ]
[1]
  abnormal behavioral responses: No abnormal responses were observed
[2]
  sedation or other side-effects: no sedation or other obvious side-effects were observed
[3]
  effect on intestinal transit (percent transit): no such effects were observed
